{"source": "paper PMC4207122", "about": "(Cell biology and toxicology, 2013)", "key": {"[1]": {"tested_on": "DU145 human prostate carcinoma cells", "assay": "Differential nuclear staining", "format": "cell-based"}, "[2]": {"tested_on": "22Rv1 human prostate cancer cells", "assay": "Differential nuclear staining", "format": "cell-based"}, "[3]": {"tested_on": "LNCaP human prostate cancer cells", "assay": "Differential nuclear staining", "format": "cell-based"}, "[4]": {"tested_on": "YT NK-like lymphoblastic lymphoma cells", "assay": "Differential nuclear staining", "format": "cell-based"}, "[5]": {"tested_on": "human cervical HeLa cancer cells", "assay": "Differential nuclear staining", "format": "cell-based"}, "[6]": {"tested_on": "all the cancer cells lines studied"}}}
{"smiles": "CC(=O)N1CCN(c2ccc(OCC3COC(Cn4ccnc4)(c4ccc(Cl)cc4Cl)O3)cc2)CC1", "note": "(stereo not drawn) [KTZ, ketoconazole]", "values": [{"measurement": "Selectivity Index (S.I.)", "setting": "[1]", "value": "28.6 1/>11"}, {"measurement": "Selectivity Index (S.I.)", "setting": "[2]", "value": "24.2 1/>13"}, {"measurement": "Selectivity Index (S.I.)", "setting": "[3]", "value": "27.9 1/>11"}, {"measurement": "Selectivity Index (S.I.)", "setting": "[4]", "value": "4.9 1/>64"}, {"measurement": "Selectivity Index (S.I.)", "setting": "[5]", "value": "66.7 1/>4"}, {"measurement": "cytotoxicity against cancer cell lines (in words)", "setting": "[6]", "value": "moderate cytotoxicity"}]}
